Measurements taken from PMC11949107, “Polyunsaturated fatty acids and their endocannabinoid-related metabolites activity at human TRPV1 and TRPA1 ion channels expressed in HEK-293 cells” (PeerJ, 2025).
Several values for one entry are separate records, joined by “and”; a condition that tells them apart may be missing. Equal entries are not always repeated.

Protein sequences, listed by entry. Tags and fused reporters are not part of them.
UniProt O75762, whole entry: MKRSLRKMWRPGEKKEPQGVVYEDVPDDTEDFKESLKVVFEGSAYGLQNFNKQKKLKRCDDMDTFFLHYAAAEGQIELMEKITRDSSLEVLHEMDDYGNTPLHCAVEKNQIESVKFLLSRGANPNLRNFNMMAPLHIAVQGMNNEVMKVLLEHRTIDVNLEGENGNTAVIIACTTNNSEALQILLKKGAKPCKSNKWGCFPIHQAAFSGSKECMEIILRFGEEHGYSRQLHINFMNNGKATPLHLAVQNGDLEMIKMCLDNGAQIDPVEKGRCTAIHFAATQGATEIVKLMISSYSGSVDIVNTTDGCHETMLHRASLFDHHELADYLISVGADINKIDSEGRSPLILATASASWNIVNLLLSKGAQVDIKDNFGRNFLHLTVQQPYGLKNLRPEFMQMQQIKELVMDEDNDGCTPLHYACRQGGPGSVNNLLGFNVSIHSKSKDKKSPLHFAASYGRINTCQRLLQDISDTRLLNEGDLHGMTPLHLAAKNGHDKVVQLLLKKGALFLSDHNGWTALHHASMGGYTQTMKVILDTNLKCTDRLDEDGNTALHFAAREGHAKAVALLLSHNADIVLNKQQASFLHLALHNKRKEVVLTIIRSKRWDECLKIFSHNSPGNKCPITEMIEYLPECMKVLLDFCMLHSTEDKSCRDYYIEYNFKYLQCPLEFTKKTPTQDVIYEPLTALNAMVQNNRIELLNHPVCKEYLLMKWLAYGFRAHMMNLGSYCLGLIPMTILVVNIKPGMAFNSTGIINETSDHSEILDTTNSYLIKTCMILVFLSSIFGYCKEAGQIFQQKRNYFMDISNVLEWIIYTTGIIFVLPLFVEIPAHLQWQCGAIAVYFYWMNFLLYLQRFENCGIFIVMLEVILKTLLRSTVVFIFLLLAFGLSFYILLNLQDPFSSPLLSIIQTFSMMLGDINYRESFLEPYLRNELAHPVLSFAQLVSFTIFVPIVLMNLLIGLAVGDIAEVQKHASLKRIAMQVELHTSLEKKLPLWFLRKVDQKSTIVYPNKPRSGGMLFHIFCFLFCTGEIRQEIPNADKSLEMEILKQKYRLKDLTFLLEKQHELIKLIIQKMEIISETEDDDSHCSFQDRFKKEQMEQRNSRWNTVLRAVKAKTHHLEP
UniProt Q8NER1, whole entry: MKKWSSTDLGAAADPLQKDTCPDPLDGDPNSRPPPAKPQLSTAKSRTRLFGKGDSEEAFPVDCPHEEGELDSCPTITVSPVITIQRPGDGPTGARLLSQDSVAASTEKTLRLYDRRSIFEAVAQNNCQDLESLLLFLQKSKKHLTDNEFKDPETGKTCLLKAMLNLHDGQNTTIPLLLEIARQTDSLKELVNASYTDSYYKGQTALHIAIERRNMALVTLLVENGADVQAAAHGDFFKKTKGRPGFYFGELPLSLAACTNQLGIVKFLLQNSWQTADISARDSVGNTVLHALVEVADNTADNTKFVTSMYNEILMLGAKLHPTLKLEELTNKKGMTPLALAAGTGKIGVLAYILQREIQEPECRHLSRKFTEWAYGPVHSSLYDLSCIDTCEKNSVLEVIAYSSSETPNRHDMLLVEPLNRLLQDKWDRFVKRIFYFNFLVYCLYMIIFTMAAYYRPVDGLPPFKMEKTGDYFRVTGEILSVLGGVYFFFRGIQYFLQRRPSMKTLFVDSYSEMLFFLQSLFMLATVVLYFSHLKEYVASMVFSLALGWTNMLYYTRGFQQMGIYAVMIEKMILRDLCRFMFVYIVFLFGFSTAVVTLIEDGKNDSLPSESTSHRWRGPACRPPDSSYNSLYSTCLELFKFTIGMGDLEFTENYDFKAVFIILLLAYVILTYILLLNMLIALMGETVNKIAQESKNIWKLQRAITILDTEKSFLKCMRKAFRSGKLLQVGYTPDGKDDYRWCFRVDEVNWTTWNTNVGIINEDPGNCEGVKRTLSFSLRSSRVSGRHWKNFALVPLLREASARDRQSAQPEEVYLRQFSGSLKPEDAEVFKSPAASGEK

Experiments:
Format in all cases: cell-based
human TRPA1 = molecular target: T1, human TRPA1 (Homo sapiens, UniProt O75762); assay: Calcium 5 dye [Ca]i assay in HEK-293 Flp-In T-REx cells expressing TRPA1 (agonist response); conditions: concentration -5.52288 (log); sheet Figure 4; listed as GLA
T1 construct: Life Technologies (cells); host or cells: Flp-In T-REx HEK-293
Description: (§1) The cells were incubated in a 5% CO2 humidified atmosphere at 37 °C. Upon reaching approximately 90% confluence in 75 cm^2 flasks, they were trypsinized and transferred to poly-D-lysine coated 96-well plates (Corning, Castle Hill, NSW, Australia) in L-15 medium supplemented with 1% FBS, 100 U penicillin and 100 µg streptomycin ml^−1 (1% P/S), and 15 mM glucose (80 µL volume per well). After an overnight incubation (maximum of 16 h) in humidified room air at 37 °C, TRPV1 and TRPA1 receptor expression was induced 4 h before experimentation by adding to each well 10 µL tetracycline solution to a final concentration of 1 µg ml^−1.
(§2) Intracellular calcium [Ca]i levels were assessed using the calcium 5 kit from Molecular Devices (# R8186, Sunnyvale, CA, USA) on a FlexStation 3 Microplate Reader (Molecular Devices, Sunnyvale, CA, USA). […] 90 µL of the dye were loaded into each well of the plate and incubated for 1 h before reading in the FlexStation 3 at 37 °C. Fluorescence was recorded every 2 s (λ excitation = 485 nm, λ emission = 525 nm) for 5 min. […]
(§3) The response to agonists was expressed as a percentage change from the average baseline measurement taken for 60s before adding drug. Changes in fluorescence resulting from the addition of solvent were subtracted before normalization to baseline. […] Potencies were expressed as pEC50, which is the negative log of EC50 in moles per litre (Molar). […]

human TRPV1 [1] = molecular target: T2, human TRPV1 (Homo sapiens, UniProt Q8NER1); assay: Calcium 5 dye [Ca]i assay in HEK-293 Flp-In T-REx cells expressing TRPV1 (agonist response)
T2 construct: Life Technologies (cells); host or cells: Flp-In T-REx HEK-293
Description: as §1, §2, §3

human TRPV1 [2] = molecular target: T2, human TRPV1; assay: PMA (phorbol ester) potentiation of TRPV1 responses in HEK-293 TRPV1 cells; design: key to Drugs alone, individual experiments: change in [Ca]i as % of pre-drug baseline
Description: Intracellular calcium [Ca]i levels were assessed using the calcium 5 kit from Molecular Devices (# R8186, Sunnyvale, CA, USA) on a FlexStation 3 Microplate Reader (Molecular Devices, Sunnyvale, CA, USA). […] Probenecid (cat # 50027; Biotium) which helps to prevent expulsion of calcium indicator from the cells was added to a final concentration of 1.25 mM. 90 µL of the dye were loaded into each well of the plate and incubated for 1 h before reading in the FlexStation 3 at 37 °C. Fluorescence was recorded every 2 s (λ excitation = 485 nm, λ emission = 525 nm) for 5 min. After 1 min of baseline recording, 20 µL of the drug, dissolved in HBSS with 1% dimethyl sulfoxide (DMSO) (cat # D2650; Sigma-Aldrich, Melbourne, Australia) was added (final DMSO concentration was 0.1% in well).
We initially determined the effect of PMA, another phorbol ester that is a protein kinase C activator ([Jiang & Fleet, 2012]) on HEK-293 TRPV1 expressing cells.
(A) Response of HEK-293 TRPV1 expressing cells for PMA at various concentration. […] Drugs were added for the duration of the bar; (D) The effects of PUFAs after potentiation of TRPV1 by PMA. […] Changes in [Ca]i are expressed as percentage of the pre-drug baseline, with the response to PMA alone at 5 min subtracted. The black circles represent the response of PUFAs without PMA pretreatment while the pink circles represent the response of PUFAs after PMA potentiation.

Q: How did the “[Ca]i response (change in fluorescence), individual replicates” value (human TRPA1) turn out when CCCCC/C=C\C/C=C\C/C=C\CCCCC(=O)O [γ-LA, γ-linolenic acid] was run?
A: 3.248

Q: What about the Emax at 30 µM (human TRPV1 [1]; HEK293, read-out: Emax ± SEM % TRPV1 (30 µM)) of the same molecule?
A: 40 ± 11%

Q: And the “Change in Ca5 fluorescence, individual experiments (CRC raw data)” value (human TRPV1 [1]; log concentration -7 (M), TRPV1 cells, listed as GLA)?
A: 4.439

Q: What about the “TRPV1 response after exposure to PMA” value (human TRPV1 [2]; PMA 100 nM, 5 min pretreatment) of the same molecule?
A: amplified

Q: And the “Drugs post-PMA, individual experiments” value (human TRPV1 [2]; PUFA 10 µM after PMA 100 nM for 5 min, response to PMA alone subtracted, listed as GLA)?
A: 44.7315 and 35.0016 and 34.9278 and 29.5327 and 32.5444 and 42.846 and 29.0963 and 22.7975

Q: And the “Drugs alone, individual experiments” value (human TRPV1 [2]; PUFA 10 µM without PMA pretreatment, TRPV1 cells, listed as GLA)?
A: 9.631 and 12.2352 and 8.421 and 4.046 and 4.255 and 2.8335 and 8.258 and 18.6815 and 44.3804
